Reference: ChEMBL document CHEMBL1938384, “Lysine demethylases inhibitors” (J Med Chem, 2011)
pKi: −log10 of the molar value.

Chains of the proteins cited; added tags and fusions are not shown.
UniProt P21397, whole entry: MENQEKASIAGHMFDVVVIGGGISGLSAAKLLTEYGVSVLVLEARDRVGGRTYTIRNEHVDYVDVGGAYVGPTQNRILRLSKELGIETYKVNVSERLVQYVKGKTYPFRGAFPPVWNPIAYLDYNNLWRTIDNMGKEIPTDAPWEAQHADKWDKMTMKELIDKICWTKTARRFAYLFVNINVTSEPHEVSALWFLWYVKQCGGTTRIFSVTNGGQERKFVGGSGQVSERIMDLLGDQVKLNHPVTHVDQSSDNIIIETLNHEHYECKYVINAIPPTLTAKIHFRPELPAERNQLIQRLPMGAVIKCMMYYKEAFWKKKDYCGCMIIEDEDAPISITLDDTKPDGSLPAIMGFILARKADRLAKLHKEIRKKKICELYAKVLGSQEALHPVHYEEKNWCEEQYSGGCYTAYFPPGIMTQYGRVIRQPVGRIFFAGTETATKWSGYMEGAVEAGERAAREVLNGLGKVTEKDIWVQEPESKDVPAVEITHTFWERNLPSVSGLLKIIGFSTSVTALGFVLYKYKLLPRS

Target: Amine oxidase [flavin-containing] A (Homo sapiens, UniProt P21397)

`NC1CC1c1ccc(NC(=O)C(Cc2ccccc2)NC(=O)OCc2ccccc2)cc1` (stereo unspecified) gave a pKi of 5.92.
